Amino acid sequences for entries named in this document (tags omitted). Residues count along the entry.
UniProt B3EWN9, 36-89: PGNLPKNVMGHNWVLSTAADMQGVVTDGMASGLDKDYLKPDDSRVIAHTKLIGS

In US20180319847A1:

Target: EphB2-Fc
Assay: SPR titration (0.05-100 nM) on immobilised EphB2-Fc, Langmuir 1:1 fit of Req

Substance | Kd [nM]
GST-Azu 36-89 (from UniProt B3EWN9 36-89) | 61
GST-Azu 36-128 (from UniProt P00282 56-148) | 23
